Test: Steady-state plasma pharmacokinetics, open-label randomized three-way crossover study, drugs alone or in combination
Details: Amantadine + Oseltamivir/Oseltamivir alone

Row | Structure (SMILES) | AUCtau (AUC0-12), ratio of geometric means (oseltamivir carboxylate in plasma) | AUCtau (AUC0-12), ratio of geometric means (oseltamivir carboxylate in plasma, listed as oseltamivir carboxylate) | AUCtau (AUC0-12), ratio of geometric means (oseltamivir in plasma) | AUCtau (AUC0-12), ratio of geometric means (oseltamivir in plasma, listed as oseltamivir)
1 | CCC(CC)O[C@@H]1C=C(C(=O)O)C[C@H](N)[C@H]1NC(C)=O [Oseltamivir carboxylate, oseltamivir carboxylate] | 0.98 | 0.98 (0.95, 1.02) | – | –
2 | CCOC(=O)C1=C[C@@H](OC(CC)CC)[C@H](NC(C)=O)[C@@H](N)C1 [Oseltamivir, oseltamivir, reference compound] | – | – | 0.92 | 0.92 (0.86, 0.99)

— article PMC2110886 (PLoS ONE, 2007)
